# Results published in patent publication US8211885B2, “Cyclic indole-3-carboxamides, their preparation and their use as pharmaceuticals” (Sanofi-Aventis, priority 2008, dated 2012).
# Protein sequences, listed by entry. Tags and fused reporters are not part of them. Residues count along the entry.
# UniProt P00797, 67-406: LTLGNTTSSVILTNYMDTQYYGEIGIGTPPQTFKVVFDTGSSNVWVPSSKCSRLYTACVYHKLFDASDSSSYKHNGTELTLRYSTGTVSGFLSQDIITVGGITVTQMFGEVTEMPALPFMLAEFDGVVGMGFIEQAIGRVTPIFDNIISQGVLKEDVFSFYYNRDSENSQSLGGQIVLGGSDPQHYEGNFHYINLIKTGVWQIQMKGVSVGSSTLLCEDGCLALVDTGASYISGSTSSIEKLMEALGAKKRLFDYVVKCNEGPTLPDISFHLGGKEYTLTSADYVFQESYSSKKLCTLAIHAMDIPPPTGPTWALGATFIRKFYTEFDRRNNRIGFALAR
# pIC50: −log10 of the molar value. Read-outs that look alike come from different tables or passages of the source.
# Target: Recombinant human renin (Homo sapiens, UniProt P00797)
# Assay: Inhibition of renin (fluorogenic peptide substrate)
# [1] = read-out: IC50 values for inhibition of renin (fluorogenic peptide substrate), renin 5 nM, substrate Dabcyl-γ-Abu-[…]-EDANS 10 μM, 2 h room temperature, Tris buffer pH 8, compounds tested as the obtained salt
pIC50,Structure (SMILES),pIC50 [1]
–,"Cc1c(F)cccc1Cc1c(C(=O)N2CCNCC2)c2ccc(OCCO)cc2n1-c1ccccc1 [Example 25, [2-(3-Fluoro-2-methyl-benzyl)-6-(2-hydroxy-ethoxy)-1-phenyl-1H-indol-3-yl]-piperazin-1-yl-methanone]",7.51
8.26,"Cc1ccc(F)cc1Oc1c(C(=O)N2CCNCC2)c2cc(C(N)=O)ccc2n1-c1ccccc1 [Example 29, 2-(5-Fluoro-2-methyl-phenoxy)-1-phenyl-3-(piperazine-1-carbonyl)-1H-indole-5-carboxylic acid amide]",–
–,"O=C(c1c(Cc2c(F)cccc2Cl)n(-c2ccccc2)c2ccccc12)N1CCNCC1 [Example 17, [2-(2-Chloro-6-fluoro-benzyl)-1-phenyl-1H-indol-3-yl]-piperazin-1-yl-methanone]",7.74
–,O=C(c1c(Oc2ccccc2)n(-c2ccc(F)cc2)c2ccccc12)N1CCNCC1 [Example 91],6.15
–,"Cc1c(F)cccc1Cc1c(C(=O)N2CCNCC2)c2ccccc2n1C1CCCCC1 [Example 32, [1-Cyclohexyl-2-(3-fluoro-2-methyl-benzyl)-1H-indol-3-yl]-piperazin-1-yl-methanone]",7.47
